Reference: paper PMC11462627, “SAL0114: a novel deuterated dextromethorphan-bupropion combination with improved antidepressant efficacy and safety profile” (Frontiers in Pharmacology, 2024)

Protein sequences, listed by entry. Tags and fused reporters are not part of them.
UniProt Q99720, whole entry: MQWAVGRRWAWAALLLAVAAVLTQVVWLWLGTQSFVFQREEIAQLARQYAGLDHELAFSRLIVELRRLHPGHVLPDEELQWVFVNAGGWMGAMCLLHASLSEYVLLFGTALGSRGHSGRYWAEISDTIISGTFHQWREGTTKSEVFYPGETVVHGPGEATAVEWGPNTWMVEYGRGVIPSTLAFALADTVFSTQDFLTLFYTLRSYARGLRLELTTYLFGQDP

Target: T1, Sigma-1 receptor (Homo sapiens, UniProt Q99720)
T1 construct: to the Sigma-1 receptor (Sigma-1R) of human-derived Jurkat cells; host or cells: Jurkat cells
Assay: Sigma 1 receptor radioligand binding (3H-pentazocine, Jurkat cells)
Settings: 3H-pentazocine competition, human-derived Jurkat cells, mean, n = 2
Method: Competitive binding of the samples and ^3H-pentazocine to the Sigma-1 receptor (Sigma-1R) of human-derived Jurkat cells was assessed using a radioligand binding method.

## deuterated dextromethorphan [deDM]
  Ki: 1720 nM
